Results reported in PubChem BioAssay AID488895 (Broad Institute, 2010).
Only a part is listed here, and it is no random draw. Activity calls are given as the source filed them.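 Rule for the calls: active = mean replicate inhibition at least 50% and at least half of replicates individually reaching 50%; inconclusive = only one of the two criteria met; inactive = neither criterion met.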

Experiment: E. coli Tat export inhibitors, primary screen, MC4100, TorA-mCherry reporter, fluorescence, single point (AID 488895);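 note: exported cargo escapes ClpAP degradation while cytoplasmic cargo is degraded and loses fluorescence; 0% = median of neutral control wells and 100% = median of NaSCN control wells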
Details: at 10 µM, active compounds read high

SMILES | inhibition
CCC(=O)N(c1ccccc1)C1(COC)CCN(CCn2nnn(CC)c2=O)CC1 | inactive: -7.63%
CCC(=O)N(c1ccccc1)C1(COC)CCN(CCc2cccs2)CC1 | inactive: -0.895%
